Results taken from publication PMC11191600 (ACS chemical neuroscience, 2024).

Amino acid sequences for entries named in this document (tags omitted). A change or cut given only in a name is not applied to a line headed by its entry. Residues count along the entry.
UniProt P14416, whole entry: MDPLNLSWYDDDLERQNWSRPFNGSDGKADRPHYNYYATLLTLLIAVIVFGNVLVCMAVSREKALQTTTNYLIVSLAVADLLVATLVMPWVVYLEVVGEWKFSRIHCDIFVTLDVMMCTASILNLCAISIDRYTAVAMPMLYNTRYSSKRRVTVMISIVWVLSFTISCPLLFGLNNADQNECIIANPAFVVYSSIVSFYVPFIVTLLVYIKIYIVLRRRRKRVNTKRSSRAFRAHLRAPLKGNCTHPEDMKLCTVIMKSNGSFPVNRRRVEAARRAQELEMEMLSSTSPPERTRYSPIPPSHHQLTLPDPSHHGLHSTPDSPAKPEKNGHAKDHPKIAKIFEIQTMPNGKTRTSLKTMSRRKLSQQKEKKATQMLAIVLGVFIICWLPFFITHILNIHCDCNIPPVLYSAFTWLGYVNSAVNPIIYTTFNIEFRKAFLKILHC
UniProt P14416, 1-414 isoform 2: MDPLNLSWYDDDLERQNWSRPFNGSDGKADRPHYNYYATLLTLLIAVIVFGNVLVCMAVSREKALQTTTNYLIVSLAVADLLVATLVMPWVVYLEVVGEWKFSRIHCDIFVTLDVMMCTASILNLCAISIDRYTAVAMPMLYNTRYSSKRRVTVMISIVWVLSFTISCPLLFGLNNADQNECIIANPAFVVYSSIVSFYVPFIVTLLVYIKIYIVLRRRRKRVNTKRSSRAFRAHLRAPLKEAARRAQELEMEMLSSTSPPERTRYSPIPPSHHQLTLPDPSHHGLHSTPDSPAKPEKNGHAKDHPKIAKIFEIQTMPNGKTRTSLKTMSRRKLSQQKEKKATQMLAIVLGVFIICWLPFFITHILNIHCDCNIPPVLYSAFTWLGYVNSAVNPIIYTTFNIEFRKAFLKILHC
UniProt P35462, whole entry: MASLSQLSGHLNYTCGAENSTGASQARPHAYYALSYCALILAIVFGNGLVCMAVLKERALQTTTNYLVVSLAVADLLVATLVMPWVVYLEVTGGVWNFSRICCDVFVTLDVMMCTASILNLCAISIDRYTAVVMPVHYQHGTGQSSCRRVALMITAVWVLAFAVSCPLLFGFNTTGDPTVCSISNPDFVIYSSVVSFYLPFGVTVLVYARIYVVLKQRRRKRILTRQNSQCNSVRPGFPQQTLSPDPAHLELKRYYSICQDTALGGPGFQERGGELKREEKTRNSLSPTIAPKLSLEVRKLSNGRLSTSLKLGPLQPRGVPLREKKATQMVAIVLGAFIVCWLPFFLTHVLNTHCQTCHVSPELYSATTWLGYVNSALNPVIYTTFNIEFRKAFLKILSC
UniProt P21917, whole entry: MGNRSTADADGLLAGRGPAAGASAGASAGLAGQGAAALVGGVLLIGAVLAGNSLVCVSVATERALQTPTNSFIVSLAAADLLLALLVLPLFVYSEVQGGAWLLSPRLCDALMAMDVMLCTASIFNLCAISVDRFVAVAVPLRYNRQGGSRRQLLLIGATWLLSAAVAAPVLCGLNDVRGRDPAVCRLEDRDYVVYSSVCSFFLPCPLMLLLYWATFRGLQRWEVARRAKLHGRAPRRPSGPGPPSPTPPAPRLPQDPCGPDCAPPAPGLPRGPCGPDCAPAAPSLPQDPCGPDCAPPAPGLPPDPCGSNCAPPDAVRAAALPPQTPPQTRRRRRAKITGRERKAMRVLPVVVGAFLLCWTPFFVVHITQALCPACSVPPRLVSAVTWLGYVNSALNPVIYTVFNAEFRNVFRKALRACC
UniProt P21728, whole entry: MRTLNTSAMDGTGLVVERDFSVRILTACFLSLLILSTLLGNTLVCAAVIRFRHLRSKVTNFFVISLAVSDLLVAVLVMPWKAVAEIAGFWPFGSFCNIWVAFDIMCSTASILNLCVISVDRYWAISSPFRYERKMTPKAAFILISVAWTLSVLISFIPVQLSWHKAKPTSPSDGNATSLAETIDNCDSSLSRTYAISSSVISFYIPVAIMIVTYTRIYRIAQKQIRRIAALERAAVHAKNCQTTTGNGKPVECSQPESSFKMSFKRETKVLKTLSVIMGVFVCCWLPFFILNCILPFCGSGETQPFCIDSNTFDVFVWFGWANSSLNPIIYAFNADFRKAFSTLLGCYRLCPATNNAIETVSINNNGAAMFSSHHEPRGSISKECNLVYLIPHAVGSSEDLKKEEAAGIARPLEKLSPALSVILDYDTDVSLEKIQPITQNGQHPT

Assays:
[1] = Kinetic solubility (shake flask, McIlvaine buffer); conditions: 18 hours room temperature; for Solubility pH = 2.2: McIlvaine buffer pH 2.2, 100 µM; for Solubility pH = 6.8: McIlvaine buffer pH 6.8, 100 µM
[2] = molecular target: Human recombinant dopamine D2L receptor (Homo sapiens, UniProt P14416); assay: Human dopamine D2L receptor radioligand binding assay (Eurofins); conditions: [3H]Spiperone binding, Eurofins Discovery
[3] = molecular target: human dopamine D3 receptor (Homo sapiens, UniProt P35462); assay: Human dopamine D3 receptor radioligand binding assay (Eurofins); conditions: [3H]Spiperone binding, Eurofins Discovery
[4] = molecular target: human dopamine D4.4 receptor (Homo sapiens, UniProt P21917); assay: Human dopamine D4.4 receptor radioligand binding assay (Eurofins); conditions: Eurofins Discovery; for % Inhibition at 10 μM D4.4: [3H]Spiperone binding; for IC50: read-out: D4.4 IC50; for Ki: read-out: D4.4 Ki
[5] = molecular target: human dopamine D2S receptor (Homo sapiens, UniProt P14416); assay: Human dopamine D2S receptor radioligand binding assay (Eurofins); conditions: [3H]Spiperone binding, Eurofins Discovery
[6] = molecular target: human dopamine D1 receptor (Homo sapiens, UniProt P21728); assay: Human dopamine D1 receptor radioligand binding assay (Eurofins); conditions: [3H]SCH-23390 binding, Eurofins Discovery

Which “Solubility pH = 2.2” value [1] does the source give for `O=C(c1ccc2ccccc2c1)N1CC2(CCN(Cc3c[nH]c4cc(F)ccc34)CC2)C1` here?
Its value is 85.0 µM.

And the “Solubility pH = 6.8” value [1]?
Its value is 79.7 µM.

And the “% Inhibition at 10 μM D2L” value [2]?
Its value is 34%.

What about the “% Inhibition at 10 μM D3” value [3] of the same compound?
The value was 36%.

And the “% Inhibition at 10 μM D4.4” value [4]?
The value was 95%.

What about the IC50 [4] of the same compound?
The IC50 was 28 nM.

What about the Ki [4] of the same compound?
The Ki was 7.6 nM.

And the “% Inhibition at 10 μM D2S” value [5]?
The value was 21%.

What about the “% Inhibition at 10 μM D1” value [6] of the same compound?
Its value is 32%.

For `O=C(c1cccc(Cl)c1)N1CC2(CCN(Cc3c[nH]c4cc(F)ccc34)CC2)C1`, which “% Inhibition at 10 μM D2L” value [2] is on record?
Its value is 35%.

What about the “% Inhibition at 10 μM D3” value [3] of the same compound?
Its value is 23%.

And the “% Inhibition at 10 μM D4.4” value [4]?
The value was 95%.

And the IC50 [4]?
The IC50 was 790 nM.

What about the Ki [4] of the same compound?
Its Ki is 220 nM.

And the “% Inhibition at 10 μM D2S” value [5]?
Its value is 17%.

What about the “% Inhibition at 10 μM D1” value [6] of the same compound?
The value was 10%.

Which “Solubility pH = 2.2” value [1] does the source give for `O=C(c1ccc2c(c1)CCCC2)N1CC2(CCN(Cc3c[nH]c4cc(F)ccc34)CC2)C1` here?
Its value is 82.7 µM.

And the “Solubility pH = 6.8” value [1]?
The value was 79.6 µM.

And the “% Inhibition at 10 μM D2L” value [2]?
Its value is 26%.

What about the “% Inhibition at 10 μM D3” value [3] of the same compound?
The value was 35%.

And the “% Inhibition at 10 μM D4.4” value [4]?
Its value is 93%.

And the IC50 [4]?
The IC50 was 260 nM.

And the Ki [4]?
The Ki was 71 nM.

What about the “% Inhibition at 10 μM D2S” value [5] of the same compound?
Its value is 22%.

What about the “% Inhibition at 10 μM D1” value [6] of the same compound?
The value was 21%.

For `O=C(c1ccc(Cl)c(Cl)c1)N1CC2(CCN(Cc3c[nH]c4cc(F)ccc34)CC2)C1`, which “% Inhibition at 10 μM D2L” value [2] is on record?
The value was 26%.

What about the “% Inhibition at 10 μM D3” value [3] of the same compound?
The value was 34%.

And the “% Inhibition at 10 μM D4.4” value [4]?
Its value is 93%.

What about the IC50 [4] of the same compound?
Its IC50 is 77 nM.

What about the Ki [4] of the same compound?
Its Ki is 21 nM.

And the “% Inhibition at 10 μM D2S” value [5]?
Its value is 11%.

What about the “% Inhibition at 10 μM D1” value [6] of the same compound?
The value was 24%.
